The target of the assay is T1, human IBAT (Homo sapiens, UniProt Q12908).
T1 construct: expressed in transfected cells; host or cells: Baby hamster kidney (BHK) cells, clone H14
T1 sequence (Q12908 1-348): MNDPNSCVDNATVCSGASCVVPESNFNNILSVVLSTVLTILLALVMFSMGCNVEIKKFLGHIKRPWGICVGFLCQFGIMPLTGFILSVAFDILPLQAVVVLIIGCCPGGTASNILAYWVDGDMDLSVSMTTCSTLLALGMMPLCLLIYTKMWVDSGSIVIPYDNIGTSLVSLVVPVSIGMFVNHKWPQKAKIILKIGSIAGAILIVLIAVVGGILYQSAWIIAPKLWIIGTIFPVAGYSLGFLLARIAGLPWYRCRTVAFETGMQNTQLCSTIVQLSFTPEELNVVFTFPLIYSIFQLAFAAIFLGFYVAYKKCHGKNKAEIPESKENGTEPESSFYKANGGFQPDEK
Kind of assay: In vitro assay of IBAT-mediated uptake of [14C]-taurocholate (TC) in H14 cells. It is filed as cell-based. The procedure: In Vitro Assay of Compounds that Inhibit IBAT-Mediated Uptake of [^14C]-Taurocholate (TC) in H14 Cells
Baby hamster kidney cells (BHK) transfected with the cDNA of human IBAT (H14 cells) are seeded at 60,000 cells/well in 96 well Top-Count tissue culture plates for assays run within in 24 hours of seeding, 30,000 cells/well for assays run within 48 hours, and 10,000 cells/well for assays run within 72 hours.
On the day of assay, the cell monolayer is gently washed once with 100 μl assay buffer (Dulbecco's Modified Eagle's medium with 4.5 g/L glucose+0.2% (w/v) fatty acid free bovine serum albumin-(FAF)BSA). To each well 50 μl of a two-fold concentrate of test compound in assay buffer is added along with 50 μl of 6 μM [^14C]-taurocholate in assay buffer (final concentration of 3 μM [^14C]-taurocholate). The cell culture plates are incubated 2 hours at 37° C. prior to gently washing each well twice with 100 μl 4° C. Dulbecco's phosphate-buffered saline (PBS) containing 0.2% (w/v) (FAF)BSA. The wells are then gently washed once with 100 μl 4° C. PBS without (FAF)BSA. To each 200 μl of liquid scintillation counting fluid is added, the plates are heat sealed and shaken for 30 minutes at room temperature prior to measuring the amount of radioactivity in each well on a Packard Top-Count instrument.

Like-named read-outs stand apart in the source and are kept apart here.

With `CCCCC1(CC)CS(=O)(=O)c2ccc(NC(=O)OC(C)(C)C)cc2C(c2ccccc2)C1O` (centres unmarked) [Example 119], the IC50 (read-out: Human TC IC50) came out at 1300 nM.

As to `CCCCC1(CCCC)CS(=O)(=O)c2ccc(N(C)C)cc2C(c2cccc(CC(=O)O)c2)C1O` (centres unmarked) [Example 1102], where the note is “Human TC IC50”, inhibition was half-maximal at 7 nM (IC50).

These data come from patent US6784201B2, “Benzothiepines having activity as inhibitors of ileal bile acid transport and taurocholate uptake” (G.D. Searle & Company, priority 1994, dated 2004).
